Columns and labels:
[1] = for stability in DMSO: two weeks at 22°C
[2] = NOD/SCID mice
[3] = tested on: mRNA splicing activity of a HeLa nuclear extract
[4] = tested on: JeKo-1 mantle cell lymphoma tumors; conditions: mouse, in vivo
[5] = tested on: SC35 and SAP155 in HeLa cervical carcinoma cells; conditions: 10 µM, 4 hours

| SMILES | stability in DMSO [1] | stability in dilute aqueous acid [1] | blood chemistries (diagnostic chemistry panel) ([2]; 5-50 mg/kg daily for five days, IV and IP, day 5) | organ histologies at total necropsy ([2]; MTD study treatment groups) | inhibition of mRNA splicing in cell-free extract [3] | fatalities or weight loss in efficacy study [4] | tumor volumes compared to vehicle-treated mice [4] | solubility in water or aqueous buffer (water or aqueous buffer) | localization of splicing factors SC35 and SAP155 [5] | solubility relative to cyclohexane derivative 5 (in PBS) [fold] |
| --- | --- | --- | --- | --- | --- | --- | --- | --- | --- | --- |
| CC(=O)O[C@@H](C)/C=C\C(=O)N[C@H]1CC[C@@H](C/C=C(C)/C=C/[C@@H]2C[C@]3(CO3)CC(C)(C)O2)CC1 [compound 3a] | no detectable decomposition | rapidly degraded |  |  |  |  |  |  |  |  |
| CC(/C=C/[C@@H]1C[C@]2(CO2)CC(C)(C)O1)=C\C[C@H]1CC[C@@H](NC(=O)/C=C\[C@H](C)OC(=O)C(C)C)CC1 [compound 5, (S,Z)-5-((1R,4R)-4-((2E,4E)-5-((3R,5S)-7,7-dimethyl-1,6-dioxaspiro[2.5]octan-5-yl)-3-methylpenta-2,4-dienyl)cyclohexylamino)-5-oxopent-3-en-2-yl isobutyrate] | no detectable decomposition | rapidly degraded | no abnormalities of the blood chemistries | no evidence for significant toxicities | inhibit the mRNA splicing activity of a HeLa nuclear extract | No fatalities or significant weight loss | statistically significant decreases in tumor volumes | limited solubility |  |  |
| CC(/C=C/[C@@H]1C[C@]2(CO2)CC(C)(C)O1)=C\C[C@H]1OC[C@@H](NC(=O)/C=C\[C@H](C)OC(=O)C(C)C)CO1 [compound 26, (S,Z)-5-((2R,5R)-2-((2E,4E)-5-((3R,5S)-7,7-dimethyl-1,6-dioxaspiro[2.5]octan-5-yl)-3-methylpenta-2,4-dienyl)-1,3-dioxan-5-ylamino)-5-oxopent-3-en-2-yl isobutyrate] |  |  |  |  |  |  |  |  | caused the splicing factors to form large aggregates | > 50 |
